Patent US9220680B2, “Compositions and methods for localized drug delivery through mammary papillae” (South Dakota State University, priority 2012, dated 2015)

Test: In vitro penetration and permeation via excised porcine mammary papilla, Franz diffusion cell (Example 1)
Assay type: in vitro ADME
Protocol: Drug penetration and permeation via mammary papillae was performed in a Franz diffusion cell using excised porcine mammary papilla. […] The transport studies were performed at time points for 6 and 48 hours.
In a separate study to evaluate the drug retention and disposition, the treatment was removed after 6 hours and the study was continued until the 48 hour mark. Samples were withdrawn from the receptor compartment at different time points. At the end of study, the mammary papilla was cut to 2 mm thick cylindrical sections from the top to the base of the tissue and was digested using a tissue solubilizer. The drug concentrations were determined by liquid scintillation counting.
Methods for the preparation of porcine mammary papilla. Freshly excised strips of porcine mammary papilla (6-7 months old animals) were washed with deionized water followed by removal of subcutaneous fatty tissue using a scalpel. Keeping the mammary papilla in the center, 3 cm×3 cm sized specimens of the tissue were excised, subcutaneous fat tissue was removed, and the tissue was frozen at −20° C. until used for the drug penetration and permeation studies. […]
Extraction of drugs from the mammary papilla. […] These sections were homogenized, the drug was extracted, and the drug concentration was determined by radioactive counts.

## bovine serum albumin [BSA]
6 and 48 hours
  Retention in mammary papilla (in words): mainly retained in the mammary papilla tissue
Treatment up to 48 hours
  Permeation across mammary papilla (in words): not found to penetrate across the mammary papilla to a significant extent
